In paper PMC6842937:

Molecular target: Hsp27 (full length) (UniProt P04792)
Test: BLI; biotinylated Hsp (25 μg/mL) loaded on streptavidin biosensors, α-syn monomer in solution at different concentrations; Octet RED96, 30°C, 50 mM Tris–HCl, 150 mM NaCl, pH 7.0; association 3 min, dissociation 8 min

Kd: 200 µM
Substance: α-Synuclein (from UniProt P37840 1-140) (natural protein; other documents disagree on this pair)
